The list shows a part of the results, in another mix than the full data. Active and inactive are the calls of the source. The call rests on the fitted dose curve; in most records, active means well fitted inhibition curve with a large enough effect; inconclusive means small, poorly fitted or top-dose-only effect; inactive means no such curve, though single readings can be large or run the other way.
Each compound was assayed against Rap guanine nucleotide exchange factor 4 (Homo sapiens) (UniProt Q8WZA2) (assay: qHTS for Antagonist of cAMP-regulated guanine nucleotide exchange factor 2 (EPAC2): primary screen). Conditions: EPAC2 GEF exchange of Rap1B-BODIPY-GDP, fluorescence; at 114 µM (top of the series) unless noted.
Further: nearly all actives have a fitted effect of over 45% in size.
On the % scale 0 is the no-effect control and ±100 the full control effect.

By UniProt entry, the sequences of proteins in these tests, tags left out.
UniProt Q8WZA2, whole entry: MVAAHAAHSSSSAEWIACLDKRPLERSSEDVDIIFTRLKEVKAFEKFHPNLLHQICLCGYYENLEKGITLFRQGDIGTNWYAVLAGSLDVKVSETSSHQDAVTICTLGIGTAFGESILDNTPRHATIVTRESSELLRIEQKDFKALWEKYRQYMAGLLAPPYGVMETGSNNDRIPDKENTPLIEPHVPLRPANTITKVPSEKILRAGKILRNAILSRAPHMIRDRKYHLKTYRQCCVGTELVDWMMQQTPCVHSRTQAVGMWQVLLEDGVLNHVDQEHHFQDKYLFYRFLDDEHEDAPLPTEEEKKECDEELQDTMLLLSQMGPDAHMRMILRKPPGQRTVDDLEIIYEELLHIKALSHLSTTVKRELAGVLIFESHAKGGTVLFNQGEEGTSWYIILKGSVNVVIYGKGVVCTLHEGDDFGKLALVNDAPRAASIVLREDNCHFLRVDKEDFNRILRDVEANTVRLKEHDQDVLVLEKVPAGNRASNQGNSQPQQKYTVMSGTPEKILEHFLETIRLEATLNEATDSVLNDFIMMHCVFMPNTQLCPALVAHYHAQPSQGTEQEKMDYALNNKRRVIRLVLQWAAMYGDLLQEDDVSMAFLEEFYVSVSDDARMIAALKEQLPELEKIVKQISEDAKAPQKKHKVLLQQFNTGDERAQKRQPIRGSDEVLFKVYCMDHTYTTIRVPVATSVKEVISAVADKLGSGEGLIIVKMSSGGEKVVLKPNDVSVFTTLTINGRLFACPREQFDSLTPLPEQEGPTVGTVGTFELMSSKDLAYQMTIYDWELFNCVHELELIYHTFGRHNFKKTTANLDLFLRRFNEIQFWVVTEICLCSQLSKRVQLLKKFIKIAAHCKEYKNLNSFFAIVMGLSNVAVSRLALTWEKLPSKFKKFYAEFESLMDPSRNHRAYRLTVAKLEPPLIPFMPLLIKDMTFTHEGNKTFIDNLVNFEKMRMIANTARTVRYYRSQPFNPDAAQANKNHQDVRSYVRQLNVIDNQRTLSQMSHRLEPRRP

SMILES | activity, negative = inhibition
COc1ccc(C(=O)NCC2(N3CCCCC3)CCCCC2)cc1 | inactive: 0.0914%
CC(C)(C)OC(=O)N1CCC(N(C(=O)c2ccccc2)c2ccc(F)cc2)CC1 | inactive: -3.64%
COc1ccc(C(=O)NCC2(N3CCCCC3)CCCCC2)c(OC)c1OC | inactive: -8.96%
CCC(c1nnnn1C1CCCC1)N1CCC(n2c(=O)[nH]c3ccccc32)CC1 (stereo unspecified) | inactive: 2.95%
CSc1ccccc1C(=O)NCC1(N2CCCCC2)CCCCC1 | inactive: 0.134%
Cc1cccc(NC2(C#N)CCN(Cc3ccccc3)CC2)c1 | inactive: 5.49%
CCC(CO)(C(=O)OC1CN2CCC1CC2)c1ccccc1 (stereo unspecified) | inactive: -0.728%
COc1cc(OC)cc(C(=O)NCC2(N3CCOCC3)CCCCC2)c1 | inactive: -2.55%
COc1cccc(C(c2nnnn2C2CCCC2)N2CCC(n3c(=O)[nH]c4ccccc43)CC2)c1OC (stereo unspecified) | inactive: -14.9%
COc1cccc(C(=O)N(c2cc(C)cc(C)c2)C2CCN(C(=O)OC(C)(C)C)CC2)c1 | inactive: -26.7%
CN1CCC(Nc2ccc(Cl)cc2)CC1 | inactive: 5.71%
CCOc1ncccc1C(=O)NCC1(N2CCOCC2)CCCCC1 | inactive: 3.76%
CN1CCC(Nc2ccc(F)c(Cl)c2)CC1 | inactive: 4.52%
O=c1[nH]c2ccccc2n1C1CCN(C(c2cc3ccccc3o2)c2nnnn2C2CCCC2)CC1 (stereo unspecified) | inactive: -14.7%
CCCOc1ccc(C(=O)NCC2(N(C)C)CCCCC2)cc1 | inactive: 0.828%
CC(C)(C)OC(=O)N1CCC(Nc2ccccc2)CC1 | inactive: 2.43%
O=C(O)C1(Nc2ccccc2)CCN(Cc2ccccc2)CC1 | inactive: -4.48%
NN(c1ccccc1)C1CCN(CCc2ccccc2)CC1 | inactive: -1.07%
Cc1ccccc1NC1(C#N)CCN(Cc2ccccc2)CC1 | inactive: 12.1%

SMILES | activity, negative = inhibition
CCN1CCC(Nc2cccc(F)c2)CC1 | inactive: 26.2%
COc1ccc(C(c2nnnn2C2CCCCC2)N2CCC(n3c(=O)[nH]c4ccccc43)CC2)cc1 (stereo unspecified) | inactive: -10.9%
CC(C)(C)n1nnnc1C(c1ccnc2ccccc12)N1CCC(n2c(=O)[nH]c3ccccc32)CC1 (stereo unspecified) | inactive: -16.1%
O=C(NCC1(N2CCCCC2)CCCCC1)c1ccco1 | inactive: 7.65%
CN(C)c1ccc(C(=O)NCC2(N3CCCCC3)CCCCC2)cc1 | inactive: 2.21%
Cn1c(=O)[nH]cc(N(CCCl)CCCl)c1=O | inactive: 2.75%
COc1cc(OC)cc(C(=O)NCC2(N3CCCCC3)CCCCC2)c1 | inactive: -2.44%
O=c1[nH]c2ccccc2n1C1CCN(C(c2ccnc3ccccc23)c2nnnn2C2CCCCC2)CC1 (stereo unspecified) | inactive: 6.26%
COc1cccc(C(c2nnnn2C2CCCCC2)N2CCC(n3c(=O)[nH]c4ccccc43)CC2)c1OC (stereo unspecified) | inactive: -10.4%
CC(=O)N(c1ccccc1)C1CCNCC1 | inactive: 0.512%
CCC(c1nnnn1C1CCCCC1)N1CCC(n2c(=O)[nH]c3ccccc32)CC1 (stereo unspecified) | inactive: -13.9%
Cc1ccc(NC2(C#N)CCN(Cc3ccccc3)CC2)cc1 | inactive: -6.83%
Cc1ccc(C(=O)NCC2(N3CCCCC3)CCCCC2)o1 | inactive: -0.315%
Fc1ccccc1NC1CCN(Cc2ccccc2)CC1 | inactive: 5.72%
Cc1ccc(Nc2c([N+](=O)[O-])cc([N+](=O)[O-])cc2[N+](=O)[O-])cc1 | inactive: -25.7%
c1ccc(CN2CCC(Nc3ccccc3)CC2)cc1 | inactive: 7.43%
Cc1cc(N(CCCl)CCCl)ccc1C=O | inactive: -0.58%
O=c1[nH]c2ccccc2n1C1CCN(C(c2ccccc2)c2nnnn2C2CCCC2)CC1 (stereo unspecified) | inactive: -7.67%
CCCN1CCC(Nc2cc(OC)cc(OC)c2)CC1 | inactive: 9.74%

SMILES | activity, negative = inhibition
CN(C)C1(CNC(=O)c2cccc(C#N)c2)CCCCC1 | inactive: 2.88%
CC(C)(C)n1nnnc1C(c1cccc2ccccc12)N1CCC(n2c(=O)[nH]c3ccccc32)CC1 (stereo unspecified) | inactive: -18.5%
CC(C)(C)OC(=O)N1CCC(N(C(=O)c2ccccc2)c2ccc(Cl)cc2)CC1 | inactive: -3.08%
N#Cc1ccc(C(=O)NCC2(N3CCCCC3)CCCCC2)cc1 | inactive: -0.317%
N/C(=N\O)c1c(N)no[n+]1[O-] | inactive: 8.26%
CCOC(=O)N1CCC(Nc2ccc(C)cc2)CC1 | inactive: -3.84%
COc1cccc(C(c2nnnn2C(C)(C)C)N2CCC(n3c(=O)[nH]c4ccccc43)CC2)c1OC (stereo unspecified) | inactive: -28.5%
CCCCn1nnnc1C(c1cccc(OC)c1OC)N1CCC(n2c(=O)[nH]c3ccccc32)CC1 (stereo unspecified) | inactive: -21.7%
CCc1cc(C(=O)NCC2(N3CCCCC3)CCCCC2)sc1C | inactive: 10.1%
O=C(OC1CN2CCC1CC2)C1c2ccccc2C=Cc2ccccc21 (stereo unspecified) | inactive: 19.2%
O=c1[nH]c2ccccc2n1C1CCN(C(c2cccs2)c2nnnn2C2CCCC2)CC1 (stereo unspecified) | inactive: -14.5%
O=C(O)c1cccc(Nc2c([N+](=O)[O-])cc([N+](=O)[O-])cc2[N+](=O)[O-])c1 | inactive: 3.4%
O=C(NCC1(N2CCOCC2)CCCCC1)c1cc(Br)ccc1Cl | inactive: 5.45%
CCCCn1nnnc1C(c1ccccc1)N1CCC(n2c(=O)[nH]c3ccccc32)CC1 (stereo unspecified) | inactive: -5.99%
COc1cc(C(=O)NCC2(N3CCOCC3)CCCCC2)cc(OC)c1C | inactive: -14.7%
COc1ccc(C(=O)NCC2(N3CCOCC3)CCCCC2)cc1OC | inactive: 3.72%
O=c1[nH]c2ccccc2n1C1CCN(C(c2ccnc3ccccc23)c2nnnn2C2CCCC2)CC1 (stereo unspecified) | inactive: -3.58%
O=c1[nH]c2ccccc2n1C1CCN(C(c2cccs2)c2nnnn2C2CCCCC2)CC1 (stereo unspecified) | inactive: -2.98%
